This assay has as its target T1, 15-hydroxyprostaglandin dehydrogenase [NAD(+)] (Homo sapiens, UniProt P15428).
T1 sequence (P15428 whole entry): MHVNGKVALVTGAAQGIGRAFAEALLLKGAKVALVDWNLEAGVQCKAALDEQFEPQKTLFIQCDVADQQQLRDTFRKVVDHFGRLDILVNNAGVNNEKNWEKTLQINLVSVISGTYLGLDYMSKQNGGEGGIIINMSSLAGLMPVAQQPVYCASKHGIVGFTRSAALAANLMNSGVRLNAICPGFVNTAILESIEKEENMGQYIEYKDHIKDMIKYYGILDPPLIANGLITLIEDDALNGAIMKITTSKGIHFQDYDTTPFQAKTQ
Description: Inhibition of human GST-fused 15-PGDH expressed in Escherichia coli BL21 using PGE2 as substrate assessed as formation of NADH by fluorescence spectrophotometric analysis. A digest of the protocol: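 GST-tagged 15-PGDH from pGEX-2T in E. coli BL-21 LysS, IPTG-induced 12 h at 25 °C, glutathione-Sepharose purified. NADH formation read fluorometrically (excitation 340 nm, emission 468 nm) against an NADH standard curve. Triplicates per concentration; IC50 derived.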

Structures are written as SMILES.

We go through one compound from ChEMBL document CHEMBL2413000, “Control of the intracellular levels of prostaglandin E₂ through inhibition of the 15-hydroxyprostaglandin dehydrogenase for wound healing” (Bioorg Med Chem, 2013).

By IC50 is commonly meant the concentration at which inhibition is half-maximal.

For the compound `O=C1N=C(O)S/C1=C\c1ccc(OCCN2CCS(=O)(=O)CC2)c(Cl)c1`, the IC50 was found to be 0.223 µM.
